Measurements: patent publication US5258185A, “Highly active, rapidly absorbable formulations of glibenclamide, processes for the production thereof and their use” (priority 1989, dated 1993)

Assay: solubility of glibenclamide
Assay type: physicochemical
Conditions: in contrast to carrier substances of DE-OS 23 55 743, below 50° C.
Procedure: Glibenclamide (INN) is a sulfonyl urea derivative having the chemical IUPAC designation: N-4-(5-chloro-[2-methoxy-benzamido)ethyl]phenylisulfonyl-N'-cyclohexyl urea. […] Together with alkalis, it forms salts which, have very limited solubility in water as compared to tolbutamide, which is also a blood sugar reducing substance. The molecular weight is 494.02, and the melting point is 172° to 174° C. (cf. R. Groning: Arzneistoffprofile und Bioverfugbarkeitsdaten von Fertigarzneimitteln, Arzneistoffmonographie Glibenclamid, Deutscher Apothekerverlag, Stuttgart, pages 1 to 7, 1987; Euglucon® N, Semi-Euglucon® N: Pharmakologische und klinische Daten, Praparateinformation Boehringer Mannheim GmbH und Hoechst AG, Frankfurt/Main, 1984).
It follows from these investigations that due to its minor water-solubilityand dissolution rate that glibenclamide is counted among the biopharmaceutically problematic pharmaceutical preparations.
DE-OS 23 48 334 describes a rapidly absorbable formulation of glibenclamide and a process for the production thereof. Glibenclamide was processed into rapidly absorbable formulations by means of pulverization to form as large a surface finest as possible or by finest precipitation, from organic solvents in dispersing agents. Extremely fine crystallizates having a surface size of 3 to 10 m^2 were obtained by the methods defined in DE-OS 23 48 334. […]

COc1ccc(Cl)cc1C(=O)NCCc1ccc(S(=O)(=O)NC(=O)NC2CCCCC2)cc1 [Glibenclamide, N-4-(5-chloro-[2-methoxy-benzamido)ethyl]phenylisulfonyl-N'-cyclohexyl urea]
dissolution of glibenclamide by low-molecular polyethylene glycols: better
